# System: SGK2
# Settings: Hi5 insect cells expressing GST-SGK2 treated four hours at 27° C. (100 nM microcysteine, 99.8 nM okadaic acid, 49.8 nM calyculin A)
substance,measurement,setting,value
Calyculin A,No-Substrate (CCPM1),purified GST-SGK2 assayed without substrate,0 CCPM1
same,CapK sub(CCPM1),"substrate CapK sub 1 mg/ml, 15 minutes at room temperature",59335 CCPM1
same,PKB sub (CCPM1),"substrate PKB sub 1 mg/ml, 15 minutes at room temperature",92540 CCPM1

# — US20020123056A1, “SGK2 and its uses” (priority 2000, published 2002)
